Data published in paper PMC3726442, “Relationship between Genotypes Sult1a2 and Cyp2d6 and Tamoxifen Metabolism in Breast Cancer Patients” (PLoS ONE, 2013).

Experiments:
[1] = human, in vivo
[2] = Plasma concentrations of tamoxifen and its metabolites in breast cancer patients on tamoxifen, by HPLC-tandem mass spectrometry; settings: patients receiving CYP2D6 inhibitors concomitantly with TAM

Row | Compound | plasma concentration, mean ±SD [1] | mean plasma concentration (±SD) [2]
1 | 4-hydroxy-tamoxifen [4-OH-tamoxifen] | 8.91 ± 7.71 ng/mL | –
2 | CC/C(=C(\c1ccccc1)c1ccc(OCCN(C)C)cc1)c1ccccc1 [Tamoxifen] | – | 180.10 ± 61.25 ng/mL
